Results published in ChEMBL document CHEMBL1687940, “Quinazoline sulfonamides as dual binders of the proteins B-cell lymphoma 2 and B-cell lymphoma extra long with potent proapoptotic cell-based activity” (J Med Chem, 2011).

By UniProt entry, the sequences of proteins in these tests, tags left out.
UniProt Q07820, whole entry: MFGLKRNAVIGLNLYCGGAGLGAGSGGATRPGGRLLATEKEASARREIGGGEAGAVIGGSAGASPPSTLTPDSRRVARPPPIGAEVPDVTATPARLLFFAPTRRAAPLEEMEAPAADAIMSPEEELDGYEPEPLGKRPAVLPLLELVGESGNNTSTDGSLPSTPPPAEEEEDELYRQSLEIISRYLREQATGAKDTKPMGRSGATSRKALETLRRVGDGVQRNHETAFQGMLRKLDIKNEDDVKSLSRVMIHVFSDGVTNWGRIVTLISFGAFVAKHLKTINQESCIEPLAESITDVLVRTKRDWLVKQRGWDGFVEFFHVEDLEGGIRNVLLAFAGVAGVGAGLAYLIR

Target: Induced myeloid leukemia cell differentiation protein Mcl-1 (Homo sapiens, UniProt Q07820)
Assay: Displacement of wild type mBimBH3 from Mcl-1 by solution competition assay
Summary of the method: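 Solution competition on Biacore 3000. Recombinant pro-survival protein (10 nM; Bcl-2 ΔC22, Bcl-w C29S/A128E ΔC29, human/mouse chimeric Mcl-1 ΔN170 ΔC23) preincubated ≥2 h with an 11-point 2-fold compound dilution series in HEPES/NaCl/EDTA/Tween running buffer, pH 7.4. Mixture then injected over CM5 chip bearing immobilized wild-type mBimBH3 peptide; percentage bound gives IC50.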

IC50: > 1000 nM
Structure (SMILES): CN(C)CC[C@H](CSc1ccccc1)Nc1ccc(S(=O)(=O)NC(=O)c2ccc(N3CCN(Cc4ccccc4-c4ccc(Cl)cc4)CC3)cc2)cc1[N+](=O)[O-] [ABT 737]
